# scFv variants of Ab-14 (light chain) against a SARS-CoV-2 spike peptide

Source: Engelhart et al. 2022 (doi:10.1038/s41597-022-01779-4), MIT Lincoln Laboratory and A-Alpha Bio; data file from the FLAb repository.

The target is the same throughout: PDVDLGDISGINAS, from the HR2 region of SARS-CoV-2 spike.

Each scFv is VH, the linker GGGGSGGGGSGGGGS, VL, as in the parent Ab-14, and differs from it in the CDRs of the light chain only.
VH: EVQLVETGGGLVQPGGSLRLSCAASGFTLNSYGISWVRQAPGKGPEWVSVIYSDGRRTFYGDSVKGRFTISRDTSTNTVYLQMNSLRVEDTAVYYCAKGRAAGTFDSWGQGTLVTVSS
VL: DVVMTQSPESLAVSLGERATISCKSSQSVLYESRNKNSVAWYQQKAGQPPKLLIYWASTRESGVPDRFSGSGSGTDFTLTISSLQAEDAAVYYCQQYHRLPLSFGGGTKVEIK

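Variants in AAYL50 differ from the parent at up to three CDR positions; double and triple changes were sampled at random. The assay is AlphaSeq: two haploid yeast populations carry antibody and antigen on their surface. After mating in shaken culture at 30 °C for 16 h, diploids were selected and their barcode pairs sequenced. Each replicate has its own calibration line, from reference interactions of the BCL2 family. There are three technical replicates.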

Each variant is given by its three light chain CDRs, as the data file delimits them; those of the parent are KSSQSVLYESRNKNSVA, WASTRES, QQYHRLPLS. The read-out is the apparent dissociation constant on a log10 scale (nM): the lower, the stronger. The mean shown is taken over the replicates in which the pair was detected. Where no diploid with the target was found in that replicate, the entry reads "n.d.": below detection, most likely a poor binder, though not proof of it.

CDR-L1	CDR-L2	CDR-L3	log10 Kd (nM) by replicate	mean log10 Kd (nM)	empty controls
KSSQSVLYESRNKNSVA	WASTEES	QQYERLPYS	n.d. 3.98 5.91	4.95	5 of 9 (4.30)
KSSQSVLYESRNKNIVA	WFSTRES	QQYHRLPDS	n.d. n.d. n.d.	n.d.	1 of 9 (3.69)
KSSSSVLYESRNKNSFA	WASTRES	QQYHRVPLS	3.91 n.d. n.d.	3.91	2 of 9 (4.28)
KSSQSVLYESRRKNSVA	WASTRAS	QQDHRLPLS	6.43 n.d. 4.61	5.52	4 of 9 (4.02)
KSSQNVLYESRNINSVA	LASTRES	QQYHRLPLS	1.73 1.55 1.69	1.66	3 of 9 (4.34)
CSSQSVLYESRNKNSVA	WASTRES	QQYHRLSHS	1.87 2.18 2.36	2.14	3 of 9 (4.65)
KSEQSVLYESRNKNSVF	WASTRES	QQYHLLPLS	n.d. n.d. n.d.	n.d.	1 of 9 (4.27)
KSSQSVVYESRNKNSVA	WASTRES	QQYHRLHLW	n.d. n.d. 4.99	4.99	3 of 9 (4.29)
KSAQSVLYESRNKSSVA	WASTRES	QVYHRLPLS	n.d. n.d. n.d.	n.d.	0 of 9
AYSQSVLYESRNKNSQA	WASTRES	QQYHRLPLS	n.d. 4.22 4.93	4.58	5 of 9 (4.56)
FGSQSVLYESRNKNSVA	WASTRES	QQYHRLILS	n.d. n.d. n.d.	n.d.	0 of 9
KSSQSVLYESRNQNSVA	WASTRES	QQVHRLPLK	n.d. n.d. n.d.	n.d.	0 of 9
KSSASVIYESRNKNSNA	WASTRES	QQYHRLPLS	n.d. n.d. 3.69	3.69	0 of 9
KSSQSVEYESRNKNSHA	WASTRES	QQYHRLPLS	n.d. n.d. 5.83	5.83	0 of 9
KSSQSVLYESRTKNSVA	WASTREW	QQYHRLPDS	2.26 1.80 1.77	1.94	0 of 9
KSSQSVLYESRNLNSVA	WAMTRES	QGYHRLPLS	2.27 2.52 2.61	2.47	2 of 9 (3.91)
KSSQSVLYESRDKNSVA	WASDRIS	QQYHRLPLS	1.42 1.44 1.52	1.46	3 of 9 (4.34)
KSSQSVLYESMNKNSVR	WASTRES	QQYHWLPLS	n.d. n.d. n.d.	n.d.	2 of 9 (3.79)
KSSQSVLYESRNKNSVA	WASTRES	QQYVRLPLS	1.21 1.30 1.31	1.27	3 of 9 (4.50)
KYSQSVLYESRNKNSVA	WASTPES	QQHHRLPLS	n.d. 3.92 n.d.	3.92	0 of 9
KSSQMALYESRCKNSVA	WASTRES	QQYHRLPLS	2.46 2.45 2.50	2.47	3 of 9 (4.37)
KSMQSVLYESRNPNSDA	WASTRES	QQYHRLPLS	n.d. n.d. n.d.	n.d.	0 of 9
KSSQSVLYESRNMRSVT	WASTRES	QQYHRLPLS	n.d. n.d. n.d.	n.d.	0 of 9
KSSQSVWYESRNKNSVP	WASRRES	QQYHRLPLS	n.d. n.d. n.d.	n.d.	1 of 9 (4.10)
KSSQSVLYESFNKNSVA	WASTRPS	QQYHRLPLS	1.49 1.37 1.48	1.45	0 of 9
KSSQSVLPESRNANSVA	WASTRES	QQYPRLPLS	n.d. n.d. n.d.	n.d.	2 of 9 (4.13)
KSSQSSLYNSRNKNSVA	WASTRES	QQYHRVPLS	n.d. 5.29 n.d.	5.29	2 of 9 (4.43)
KSSQCVLYESRNANSVA	WASHRES	QQYHRLPLS	2.02 1.14 1.31	1.49	1 of 9 (3.08)
LSSQSVLYESRNKNSVA	AASTRES	PQYHRLPLS	0.91 0.86 0.90	0.89	2 of 9 (3.61)
KKSQSVLYESRNKNSVA	WASTRES	QTYHRQPLS	3.92 2.74 n.d.	3.33	0 of 9
KSSQSVLYESRNFNSVA	WTSTRES	QQYHRLALS	0.72 0.87 0.86	0.82	1 of 9 (3.12)

Top 5 of the variants detected in all replicates, tightest first:

CDR-L1,CDR-L2,CDR-L3,log10 Kd (nM) by replicate,mean log10 Kd (nM),empty controls
KSSQSVLYESRNFNSVA,WTSTRES,QQYHRLALS,0.72 0.87 0.86,0.82,1 of 9 (3.12)
LSSQSVLYESRNKNSVA,AASTRES,PQYHRLPLS,0.91 0.86 0.90,0.89,2 of 9 (3.61)
KSSQSVLYESRNKNSVA,WASTRES,QQYVRLPLS,1.21 1.30 1.31,1.27,3 of 9 (4.50)
KSSQSVLYESFNKNSVA,WASTRPS,QQYHRLPLS,1.49 1.37 1.48,1.45,0 of 9
KSSQSVLYESRDKNSVA,WASDRIS,QQYHRLPLS,1.42 1.44 1.52,1.46,3 of 9 (4.34)

In this assay the parent's reference entry averaged 0.65; its copy inside this library read 1.68. Background: pairings of library AAYL50 with three empty control strains gave a value in 18% of cases (median 4.19, 5th percentile 2.99). Values in that range, when seen in few replicates, are hard to tell from nonspecific mating. Also given: how often the same scFv was detected with the empty control strains, with their mean in brackets.